According to PubChem BioAssay AID1053188 (Broad Institute, 2014):
The entries are a selection whose mix differs from that of the whole data set. Active and inactive are the calls of the source.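 The calls were made as follows: active = mean inhibition of at least 50% with a set share of replicates also reaching that level; inconclusive = no clear call, values can overlap the other calls; inactive = the rest.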

Experiment: CD40 pathway blockade in BL2 B cells – cell-based, luciferase reporter, single point, primary screen (AID 1053188);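 also: 0% = neutral control wells and 100% = IKK inhibitor VII at 50 µM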
Details: BL2 NF-kB luciferase reporter, CD40L-induced, 4 h; at 10 µM; active compounds read high

| Structure (SMILES) | inhibition |
| --- | --- |
| CC(C)c1ccc(C(=O)NCC2(N3CCOCC3)CCCCC2)cc1 | inactive: -17% |
| CN1CCN(CCOC(=O)C(O)(c2ccccc2)c2ccccc2)CC1 | inactive: 5.78% |
| CSc1ccc(C(=O)NCC2(N3CCOCC3)CCCCC2)cc1 | inactive: -1.79% |
| O=C(NCC1(N2CCCCC2)CCCCC1)c1cccc([N+](=O)[O-])c1 | inactive: 2.36% |
| Cc1ccc(C(=O)NCC2(N(C)C)CCCCC2)o1 | inactive: 9.91% |
| O=C(NCC1(N2CCOCC2)CCCCC1)c1cc(F)c(F)cc1Cl | inactive: 0.761% |
| CCOC(=O)N1CCC(Nc2ccc(OC)cc2)CC1 | inactive: -8.63% |
| O=C(OC1CN2CCC1CC2)C1c2ccccc2Oc2ccccc21 (stereo unspecified) | inactive: 7.6% |
| O=C(NCC1(N2CCCCC2)CCCCC1)c1ccc(=O)[nH]c1 | inactive: 11.9% |
| O=C(NCC1(N2CCCCC2)CCCCC1)c1cccs1 | inactive: 14.7% |
| CCCCOc1ccc(C(=O)NCC2(N3CCOCC3)CCCCC2)cc1 | inactive: -1.03% |
| O=P1(N(CCCl)CCCl)SCCCS1 | inactive: 8.77% |
| COc1ccc(NC2CCN(CCc3ccccc3)CC2)c(OC)c1 | inactive: 15% |
| O=C(NCC1(N2CCCCC2)CCCCC1)c1ccco1 | inactive: -1.76% |
| Cn1c(=O)[nH]cc(N(CCCl)CCCl)c1=O | inactive: 0.15% |
| Cc1ccccc1NC1(C#N)CCN(Cc2ccccc2)CC1 | inactive: 5.43% |
| O=C(O)C1(Nc2ccccc2)CCN(Cc2ccccc2)CC1 | inactive: 1.49% |
| CCOc1ncccc1C(=O)NCC1(N2CCOCC2)CCCCC1 | inactive: 3.73% |
| O=C(OC1CN2CCC1CC2)C1c2ccccc2C=Cc2ccccc21 (stereo unspecified) | inactive: 24.7% |
| O=C(NCC1(N2CCOCC2)CCCCC1)c1cc(Br)ccc1Cl | inactive: 7.34% |
| C/C(N)=N\P(=O)(Oc1ccccc1)Oc1ccccc1 | inactive: -2.83% |
